Values of other authors, collected in publication PMC12508576, “Implementing a trilineage differentiation in the ReproTracker assay for improved teratogenicity assessment” (Frontiers in Toxicology, 2025).

System: hiPSCs trilineage differentiation (cardiomyocytes, hepatocytes, neural rosette-like cells)
Details: based on effects on cardiomyocytes and/or hepatocytes only; ref Jamalpoor et al., 2022; cited from earlier work

## Cc1ccc(NC(=O)c2ccc(CN3CCN(C)CC3)cc2)cc1Nc1nccc(-c2cccnc2)n1 [Imatinib]
  LOAEL before inclusion of the neural differentiation readout: 31.3 µM
